# Measured values: patent publication US9448243B2, “Weak affinity chromatography” (priority 2013, dated 2016)
# By UniProt entry, the sequences of proteins in these tests, tags left out. Residues count along the entry.
# UniProt P02768, 25-609: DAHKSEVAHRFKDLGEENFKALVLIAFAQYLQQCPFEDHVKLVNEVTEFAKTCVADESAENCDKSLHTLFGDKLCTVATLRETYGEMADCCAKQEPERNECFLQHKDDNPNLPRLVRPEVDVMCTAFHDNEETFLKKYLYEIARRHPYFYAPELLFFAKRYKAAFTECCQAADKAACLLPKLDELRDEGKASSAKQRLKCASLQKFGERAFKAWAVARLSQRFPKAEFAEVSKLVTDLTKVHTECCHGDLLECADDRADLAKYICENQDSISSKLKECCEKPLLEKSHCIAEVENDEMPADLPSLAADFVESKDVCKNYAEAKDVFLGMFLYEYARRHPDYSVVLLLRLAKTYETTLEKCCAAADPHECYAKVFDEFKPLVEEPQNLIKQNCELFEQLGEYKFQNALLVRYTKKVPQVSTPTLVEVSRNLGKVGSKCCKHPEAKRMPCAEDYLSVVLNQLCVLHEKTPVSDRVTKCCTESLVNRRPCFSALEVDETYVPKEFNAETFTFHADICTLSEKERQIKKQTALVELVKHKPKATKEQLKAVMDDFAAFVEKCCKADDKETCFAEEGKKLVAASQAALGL
# UniProt P02769, 25-607: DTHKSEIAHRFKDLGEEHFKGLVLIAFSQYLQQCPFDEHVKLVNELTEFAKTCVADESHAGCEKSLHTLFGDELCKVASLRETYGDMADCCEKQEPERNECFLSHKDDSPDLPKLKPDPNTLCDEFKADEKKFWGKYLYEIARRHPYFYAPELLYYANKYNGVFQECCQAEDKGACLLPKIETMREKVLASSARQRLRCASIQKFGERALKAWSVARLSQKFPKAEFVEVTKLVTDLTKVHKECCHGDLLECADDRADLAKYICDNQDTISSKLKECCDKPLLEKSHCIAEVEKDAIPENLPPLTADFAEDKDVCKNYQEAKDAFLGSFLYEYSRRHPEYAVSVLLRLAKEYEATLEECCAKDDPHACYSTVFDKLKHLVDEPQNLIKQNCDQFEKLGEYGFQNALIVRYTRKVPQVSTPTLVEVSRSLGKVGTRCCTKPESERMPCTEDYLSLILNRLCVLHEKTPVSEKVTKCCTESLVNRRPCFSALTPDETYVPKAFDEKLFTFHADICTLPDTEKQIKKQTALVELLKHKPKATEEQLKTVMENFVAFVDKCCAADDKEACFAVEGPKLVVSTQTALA
# What was measured:
# [1] = molecular target: human serum albumin (HSA) (Homo sapiens, UniProt P02768); assay: Weak affinity chromatography of steroids on HSA column; type: binding; details: HSA 99% purity, 118 mg/g silica, 20° C.
# Method: Four columns were prepared, a blank diol-silica column (column A) having no binding ligands and 3 columns (columns B, C, D) loaded with albumin as the binding ligand. Column B was a silica packed column (7 μm, 300 Å porosity) loaded with 96% purity bovine serum albumin (BSA) at a concentration of 66 mg of BSA per gram of silica. Column C was a silica packed column (7 μm, 300 Å porosity) loaded with 99% purity bovine serum albumin (BSA) at a concentration of 77 mg of BSA per gram of silica. Column D was a silica packed column (7 μm, 300 Å porosity) loaded with 99% purity human serum albumin (HSA) at a concentration of 118 mg of HSA per gram of silica. All four column dimensions were 2.1×50 mm stainless steel. Immobilization of the ligands was performed batchwise with periodate activation. 0.5 g of diol-silica was used with 5 ml of H2O added. The silica was sonicated for 2 minutes, and 0.5 g of periodic acid was added to convert the diol groups to aldehyde-groups. After 2 hours of mixing, the aldehyde-silica was washed with 100 mM phosphate, pH 7.0. 5 ml of the respective ligand in 100 mM phosphate buffer, pH 7.0, was prepared. Ligand concentration was 10 mg/ml. […]
# The columns were tested with the PBS buffer and the Am-Ac listed above. The capacity factor (k′) and dissociation constant (Kd) were determined as set forth in U.S. Pat. No. 4,879,247 issued on Nov. […]
# [2] = molecular target: bovine serum albumin (BSA) (Bos taurus, UniProt P02769); assay: Weak affinity chromatography of steroids on BSA columns (columns B, C); type: binding; details: 20° C.; for k′ (capacity factor), Column B: BSA 96% purity, 66 mg/g silica; for k′ (capacity factor), Column C: BSA 99% purity, 77 mg/g silica
# Method: Four columns were prepared, a blank diol-silica column (column A) having no binding ligands and 3 columns (columns B, C, D) loaded with albumin as the binding ligand. Column B was a silica packed column (7 μm, 300 Å porosity) loaded with 96% purity bovine serum albumin (BSA) at a concentration of 66 mg of BSA per gram of silica. Column C was a silica packed column (7 μm, 300 Å porosity) loaded with 99% purity bovine serum albumin (BSA) at a concentration of 77 mg of BSA per gram of silica. Column D was a silica packed column (7 μm, 300 Å porosity) loaded with 99% purity human serum albumin (HSA) at a concentration of 118 mg of HSA per gram of silica. All four column dimensions were 2.1×50 mm stainless steel. Immobilization of the ligands was performed batchwise with periodate activation. 0.5 g of diol-silica was used with 5 ml of H2O added. The silica was sonicated for 2 minutes, and 0.5 g of periodic acid was added to convert the diol groups to aldehyde-groups. After 2 hours of mixing, the aldehyde-silica was washed with 100 mM phosphate, pH 7.0. 5 ml of the respective ligand in 100 mM phosphate buffer, pH 7.0, was prepared. Ligand concentration was 10 mg/ml. 250 μl NaCNBH3, concentration of 0.1 mg/ml, was added. Coupling time was 40 hours at room temperature (22° C.) on mixing table.
# The system comprised the columns used in an Agilent 1200-LC-MS system. The steroids were all dissolved in ethanol at a concentration of 0.05 μg/μl. 2 μl samples were run in duplicate. Solvent buffers used included phosphate buffered saline (PBS) at pH 7.4 and 5 mM ammonium-acetate (Am-Ac) salt, pH 6.9. Column temperature was 20° C. with a flow rate of 0.400 ml/min. Detection included the use of UV diode-array detector (DAD) at 237 nm.
# The columns were tested with the PBS buffer and the Am-Ac listed above. The capacity factor (k′) and dissociation constant (Kd) were determined as set forth in U.S. Pat. No. 4,879,247 issued on Nov. 7, 1989 to Sten Ohlson, which is hereby incorporated by reference in its entirety.
smiles,measurement,setting,value
"C[C@]12C=CC(=O)C=C1CC[C@@H]1[C@@H]2[C@@H](O)C[C@@]2(C)[C@H]1CC[C@]2(O)C(=O)CO [Prednisolone, prednisolone]","k′ (capacity factor), Column D",[1]; 5 mM Am-Ac buffer pH 6.9,1.56
same,"k′ (capacity factor), Column D",[1]; PBS buffer pH 7.4,1.64
same,"k′ (capacity factor), Column B",[2]; 5 mM Am-Ac buffer pH 6.9,1.13
same,"k′ (capacity factor), Column C",[2]; 5 mM Am-Ac buffer pH 6.9,1.34
same,"k′ (capacity factor), Column B",[2]; PBS buffer pH 7.4,1.27
same,"k′ (capacity factor), Column C",[2]; PBS buffer pH 7.4,1.41
